Earlier results on one substance are cited in paper PMC3825844 (Analytical biochemistry, 2013).

For the data set, the system named is PXR-SRC (steroid receptor coactivator) tethered protein. To be noted: read-out: hypothetical Kd, circular dichroism; cited from earlier work. For orientation: Circular dichroism is the unequal absorption of left and right circularly polarised light.

Regarding Hyperforin, the equilibrium dissociation constant (Kd) (commonly a measure of binding affinity in units of concentration) was 50 nM.
